# Tested on: human dopaminergic neurons (iCell DopaNeurons)
# Test: MPP+-induced neurotoxicity: neurite outgrowth (neurite length, branch points) of iCell DopaNeurons, Incucyte
# Format: cell-based
# Excerpt: We conducted an in vitro study of the drugs in Table 1 to evaluate the neuroprotective effects of 44 conditions of treatment (Table 2, experiments 1-41; 51-53) against MPP+-induced neurodegeneration toxicity on human dopaminergic neurons (iCell® DopaNeurons: iPS cell-derived human midbrain floorplate dopaminergic neurons). Further combinations (Table 2, experiments 42-50 and Table 3) are also disclosed.
# iCell DOPA neurons are neural floor plate-derived midbrain dopaminergic neurons generated from human induced pluripotent stem cells (iPSCs). […]
# Three different measurements were made in the experiments. […] Experimental conditions were measured relative to the results of healthy cells in the studies. […]
# For the evaluation of conditions 1-28, Neurite outgrowth was followed for subsequent 48 hours using an Incucyte Zoom platform with one phase contrast image every 4 hours, using a 20× objective. After 48 hours, the medium containing test compounds and MPP+ was removed and replaced by fresh medium containing a fluorescent cytolysis marker (red fluorescence) and a live cell marker (green fluorescence). […]
# Assay endpoints and data analysis. Phase contrast images were analyzed at each time point to determine the neurite length and number of branch points per mm^2. […]
structure (smiles),measurement,value
"COc1cc2nc(N3CCN(C(=O)C4CCCO4)CC3)nc(N)c2cc1OC (centres unmarked) [TZ, Terazosin]","Neurite length - Baseline-corrected AUC (0-72 h), Mean",661 mm/mm^2
same,"Number of branch points per mm^2 - Baseline-corrected AUC (0-72 h), Mean",15987.1 per mm^2
